# Yeast mating assay B: variants of the scFv Ab-14

Reference: Li et al. 2023, doi:10.1038/s41467-023-39022-2. File: FLAb, binding data.

All variants were tested on one target, the spike HR2 peptide PDVDLGDISGINAS (SARS-CoV-2).

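The parent was found by panning a naive human phage display library on the peptide. These sequences belong to a second round, designed from the earlier measurements on random variants of the parent. Group labels follow the data file (Ctrl: baseline library sampled from a position-specific scoring matrix, with some repeated check sequences; Rand: our label for a block that the file lists under HC and that is probably the random mutants of the ten best first-round binders; En: ensemble of fine-tuned language models; GP: Gaussian process model; GPLM: also part of the Gaussian process libraries; HC: hill climbing; Gen: genetic algorithm; Gibbs: Gibbs sampling; a sequence that several methods proposed may carry one label only). In AlphaSeq, yeast of one mating type display the scFv and yeast of the other type display the target. The frequency of each diploid, read from paired DNA barcodes, reflects how well the two displayed proteins bind. The ratio of observed to expected reads was calibrated, replicate by replicate, on BCL2-family standards whose Kd was known from biolayer interferometry. Each pool was mated in six replicate cultures.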

Ab-14 is the parent antibody, in scFv form: VH, then a (GGGGS)3 linker, then VL. The light chain is unchanged in all variants.
VH: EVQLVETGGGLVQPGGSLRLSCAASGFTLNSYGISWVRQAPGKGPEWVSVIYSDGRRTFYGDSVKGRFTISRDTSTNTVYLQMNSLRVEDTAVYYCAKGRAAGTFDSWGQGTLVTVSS
VL: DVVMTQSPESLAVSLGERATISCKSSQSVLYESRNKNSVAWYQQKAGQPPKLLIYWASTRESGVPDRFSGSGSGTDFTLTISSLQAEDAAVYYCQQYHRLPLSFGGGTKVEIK

The parent's heavy chain CDRs are GFTLNSYGIS, VIYSDGRRTFYGDSVK, GRAAGTFDS; each variant's own CDRs replace them letter for letter.
Variants here have at most six changes.
Numbers give log10(Kd / nM), so 0 is 1 nM and 3 is 1 µM. Smaller is tighter.
Replicates are averaged; those with no signal do not enter the mean.
Where no diploid with the target was found in any replicate, the entry reads "not detected": below detection, most likely a poor binder, though not proof of it.
The parent sequence was in this pool as ten entries: three were never detected, three once, and four in most replicates, with averages from 0.34 to 2.37.
Some sequences occur more than once in the pool; their replicates are pooled.
The authors' rule: three or more of the six replicates give a measured affinity, fewer mean a poor binder.
Empty control strains, which show no peptide, gave a signal in 1% of pairings with all heavy chain designs; the median was 2.08 and 95% of these signals were weaker than 0.84. No background was subtracted.
The range of this assay differs from that of the first round, and the authors advise against merging the two.

| CDR-H1 | CDR-H2 | CDR-H3 | group | log10 Kd (nM), mean | detected |
|---|---|---|---|---|---|
| GFTLNDYGIS | VIYSDGRRTFYGDSVK | GRIAGTFDS | GPLM_Gen | 0.08 | 6/6 |
| GFVLNSYGIS | VIYSDGRRTFYADSVK | GRQAGTFDS | GPLM_Gen | not detected | 0/6 |
| GFELNEYGIS | VIYSDGRRTFYGDSVK | GKAAGTFDK | GP_Gen | 0.86 | 5/6 |
| MFDLNSYGIS | VIYSDGRRTFYQDSVK | GNAAGTFDS | GP_Gen | not detected | 0/6 |
| GFTLNSYGIS | VIYSDGRRTFYSDAVK | GRAAGTFDL | Ctrl | 1.31 | 5/6 |
| GFTLNSYGIS | VIYSDGRRTFYIDSVK | GQVAGTFDA | GPLM_Gibbs | 0.05 | 6/6 |
| GFTLNSYGIS | VIYSDGRRTFYCDSVK | GQVAGTFDS | GP_HC | 1.45 | 3/6 |
| GFTLNQYGIS | VIYSDGRRTFYLDSVA | GRAAGTFDS | Ctrl | 1.79 | 4/6 |
| GFWLNEYGIS | VIYSDGRRTFYGDSVK | GRTAGTFDE | GP_Gen | 2.02 | 2/6 |
| GFTLNDYPIS | VIYSDGRRTQYIDSVK | ETAAGTFDS | Rand | not detected | 0/6 |
| GFWLNDYGIS | VIYSDGRRTFYADSVK | GRTAGTFDS | GPLM_Gen | 0.57 | 6/6 |
| GFDLNSYGIS | VIYSDGRRTFYGDSVK | GRAAGIFNS | GPLM_HC | 1.92 | 5/6 |
| GFELNMYGIS | VIYSDGRRTFYADSVK | GRVAGTFDS | GP_Gibbs | 0.43 | 4/6 |
| GFNLNSYGIS | VIYSDGRRTFYTDNVK | GRTAGTFDS | GP_Gibbs | 0.65 | 6/6 |
| GFTLNSYGIS | VIYSDGRRTFYNDSVK | GRPAGTFPS | Ctrl | 2.41 | 1/6 |
| GNSLNSYGIS | VIYSDGRRTFYGDSVK | GRAAGTFDS | Ctrl | 2.03 | 3/6 |
| GFELNTYGIS | VIYSDGRRTFYGDSVK | GKTAGTFDS | GPLM_Gibbs | 1.12 | 1/6 |
| GFTLNEYGIS | VIYSDGRRTFYGDSVR | GEAAGTFDS | Ctrl | 0.44 | 6/6 |
| GFTLCQYGIS | VIYSDGRRTFYSDSHK | GRAAGFFDS | Rand | not detected | 0/6 |
| GFTLNDYGIS | VKYSDGLRTQYIDSQK | GRAAGTFDS | Rand | not detected | 0/6 |
| GFTLNQYGIS | VIYSDGRRTFYGDSVK | GRAAGTFDT | Ctrl | 0.56 | 6/6 |
| GFDLNSYGIS | VIYSDGRRTFYGDSVK | GRNAGTFES | GP_HC | not detected | 0/6 |
| GFTLNSYGIS | VIYSDGKRTFYGDNVK | GREAGTFDS | GP_Gibbs | 0.29 | 6/6 |
| GFTLNDYGIS | VIYSDGRRTFHGDSVK | GRAALTFIS | Rand | not detected | 0/6 |
| GFSLNSYGIS | VIYSDGKRTFYGDSVK | GRTAGTFDT | GPLM_Gen | -0.08 | 6/6 |
| TITLNSYGIS | VIYSDGRRTFYGDSVK | GRAAGTFDS | Ctrl | not detected | 0/6 |
| GFTINSYGIS | VIYSDGRRTFYSDSVK | GQAGGTFDS | GP_HC | 1.94 | 5/6 |
| GLTLASYGIS | VIYSDGVRTFYGDSVK | GRAAGTFDS | Ctrl | 2.25 | 1/6 |
| GFDLNEYGIS | VIYADGRRTFYADSVK | GTAAGTFDL | En_HC | -0.33 | 6/6 |
| GFTLNDYGIS | VIYSDGRRTFYRDSVK | GRAALTFIS | Rand | not detected | 0/6 |
| GFTLNDYGIS | VIYHDRRRVQYIDSVK | GRAAGTFDS | Rand | not detected | 0/6 |
| GDTLNSYGIS | VIYSDGRRTFYGDSVK | GRAAGTFDS | Ctrl | 1.98 | 1/6 |
| KFQLNSYGIS | VIYSDGRRTFYIDSVK | GQTAGTFDS | GP_Gibbs | not detected | 0/6 |
| GFHLNDYGIS | VIYSDGRRTFYIDSVK | GREAGTFDS | GP_HC | 0.47 | 4/6 |
| GFELNEYGIS | VIYSDGRRTFYIDSVK | GRTAGTFDS | GPLM_HC | -0.05 | 6/6 |
| GFDLNSYGIW | VIVSDGRRTFYGDSVK | GRAAGWFNS | Rand | 1.32 | 1/6 |
| GFTLNEYGIS | VIYSDGRRTFYTDSVK | GHFAGTFDS | GPLM_HC | 0.86 | 6/6 |
| GFTLNDYGIS | VIYSDGRRTFYGDSVK | GRMAGTFWS | GPLM_HC | not detected | 0/6 |
| GFTLNSYGIS | VIYSDGRRTFYSDSVK | GRAAVTFDM | GP_HC | not detected | 0/6 |
| GFNLNTYGIS | VIYSDGRRTFYGDSVK | GRTAGTFDS | GPLM_Gibbs | 0.56 | 6/6 |
| GFELNSYGIS | VIYSDGRRTFYGDSVK | GEAAGTFDA | GP_Gen | 0.70 | 6/6 |
| GFDLNKYGIS | VIYSDGRRTHYGDSVK | GRAAGTFDS | Ctrl | 1.28 | 6/6 |
| GFTLNEYGIS | VIYSDGRRTEYGDSVK | GRAAGTFDS | Ctrl+GP_HC | 0.90 | 12/12 |
| GFTLNDYGIS | VIQSDGRRTFYGDSVK | GRAPLTFWS | Rand | not detected | 0/6 |
| GFTLNDYGIS | VIYSDGDRTQYIDSVK | GRAARTEDS | Rand | not detected | 0/6 |
| GFGLNDYGIS | VIYSDGRRTFYHDWVK | GRTAGTFDS | GP_Gibbs | 1.40 | 2/6 |
| GFSLNDYGIS | VIYSDGRRTWYGDSVK | GRAAGTFDS | GP_HC | 0.61 | 6/6 |
| GFALNEYGIS | VIYSDGRRTFYHDSVK | GRTAGTFDS | GP_Gen | -0.08 | 6/6 |
| GFDLNSYGIS | VIYSDGRRTFYGDSVK | GRQAGSFDS | GPLM_Gibbs | 1.29 | 2/6 |
| GFSLNSYGIS | VIYSDGRRTFYSDSVK | GVAGGTFDS | GP_HC | not detected | 0/6 |
| GFQLNEYGIS | VIYSDGRRTFYGDSVK | GKAAGTFDK | GP_Gen | 0.40 | 6/6 |

Again, the first 8 entries without any signal:

| CDR-H1 | CDR-H2 | CDR-H3 | group | log10 Kd (nM), mean | detected |
|---|---|---|---|---|---|
| GFVLNSYGIS | VIYSDGRRTFYADSVK | GRQAGTFDS | GPLM_Gen | not detected | 0/6 |
| MFDLNSYGIS | VIYSDGRRTFYQDSVK | GNAAGTFDS | GP_Gen | not detected | 0/6 |
| GFTLNDYPIS | VIYSDGRRTQYIDSVK | ETAAGTFDS | Rand | not detected | 0/6 |
| GFTLCQYGIS | VIYSDGRRTFYSDSHK | GRAAGFFDS | Rand | not detected | 0/6 |
| GFTLNDYGIS | VKYSDGLRTQYIDSQK | GRAAGTFDS | Rand | not detected | 0/6 |
| GFDLNSYGIS | VIYSDGRRTFYGDSVK | GRNAGTFES | GP_HC | not detected | 0/6 |
| GFTLNDYGIS | VIYSDGRRTFHGDSVK | GRAALTFIS | Rand | not detected | 0/6 |
| TITLNSYGIS | VIYSDGRRTFYGDSVK | GRAAGTFDS | Ctrl | not detected | 0/6 |